# Source: ChEMBL document CHEMBL1129267, “Aryl 1-but-3-ynyl-4-phenyl-1,2,3,6-tetrahydropyridines as potential antipsychotic agents: synthesis and structure-activity relationships” (J Med Chem, 1996)
# Chains of the proteins cited; added tags and fusions are not shown.
# UniProt P61169, whole entry: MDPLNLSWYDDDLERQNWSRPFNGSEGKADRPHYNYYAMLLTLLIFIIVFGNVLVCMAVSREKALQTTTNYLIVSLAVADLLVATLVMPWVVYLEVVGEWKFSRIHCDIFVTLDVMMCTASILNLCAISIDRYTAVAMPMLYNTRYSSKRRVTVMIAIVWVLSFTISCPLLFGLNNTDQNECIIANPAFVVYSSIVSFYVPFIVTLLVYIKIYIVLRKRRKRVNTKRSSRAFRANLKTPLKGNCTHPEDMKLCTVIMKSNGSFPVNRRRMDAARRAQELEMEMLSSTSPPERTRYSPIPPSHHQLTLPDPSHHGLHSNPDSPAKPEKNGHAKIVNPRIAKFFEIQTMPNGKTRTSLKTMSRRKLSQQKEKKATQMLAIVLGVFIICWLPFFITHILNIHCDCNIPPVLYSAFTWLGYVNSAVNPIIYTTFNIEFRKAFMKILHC
# Biological target: D(2) dopamine receptor (Rattus norvegicus, UniProt P61169)
# Assay: Binding affinity at Dopamine receptor D2 in rat striatal membrane by [3H]spiperone displacement.
# Format: cell membranes, Striatum
# Procedure, shortened: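 Rat striatal membranes; [³H]spiperone 0.2 nM final; nonspecific binding defined with (+)-butaclamol 1.0 µM final. Four to six concentrations, each run in triplicate; Ki obtained by nonlinear regression analysis.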
smiles,measurement,value
C(#Cc1cnc2ccccc2c1)CCCN1CC=C(c2ccccc2)CC1,Ki,0.04 µM
